How the values were obtained:
PSA-A2M = PSA-A2M (Homo sapiens, UniProt P07288); type: biochemical; settings: inhibitor 10 μM; 50% buffered human plasma; substrate Mu-SRKSQQY-AMC 300 μM
[1] = target: PSA complex formation with A2M and ACT (Homo sapiens, UniProt P07288); assay: Western blot of PSA complex formation with A2M and ACT ± PSA inhibitor; type: binding; settings: inhibitor 10 μM, PSA 10 μg/mL, A2M 20 μg/mL or ACT 20 μg/mL, overnight, room temperature

Chains of the proteins cited; added tags and fusions are not shown. Lines headed by an entry give the natural chain unless they say otherwise; changes in a name come on top. Residues count along the entry.
UniProt P07288, 25-261: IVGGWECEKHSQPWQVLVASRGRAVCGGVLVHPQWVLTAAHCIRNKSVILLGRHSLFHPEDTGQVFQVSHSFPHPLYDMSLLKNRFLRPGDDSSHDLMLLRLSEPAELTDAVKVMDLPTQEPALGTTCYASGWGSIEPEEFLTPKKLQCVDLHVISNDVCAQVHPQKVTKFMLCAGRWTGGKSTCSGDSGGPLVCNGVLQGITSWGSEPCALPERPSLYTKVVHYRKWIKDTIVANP

Ahx-FSQn(boro)Bpg
Inhibition of PSA activity after addition to human plasma (PSA-A2M): maintained the ability to inhibit PSA | Blocking of PSA complex formation with A2M and ACT [1]: able to block PSA complex formation with A2M and ACT

Source: PMC8147660 (The Prostate, 2018)
